Experimental data taken from US20150315211A1, “SMALL MOLECULES FOR THE MODULATION OF MCL-1 AND METHODS OF MODULATING CELL DEATH, CELL DIVISION, CELL DIFFERENTIATION AND METHODS OF TREATING DISORDERS” (priority 2010, published 2015).

Amino acid sequences for entries named in this document (tags omitted). Residues count along the entry.
UniProt Q07817, 1-212 limits assumed, stated change not applied: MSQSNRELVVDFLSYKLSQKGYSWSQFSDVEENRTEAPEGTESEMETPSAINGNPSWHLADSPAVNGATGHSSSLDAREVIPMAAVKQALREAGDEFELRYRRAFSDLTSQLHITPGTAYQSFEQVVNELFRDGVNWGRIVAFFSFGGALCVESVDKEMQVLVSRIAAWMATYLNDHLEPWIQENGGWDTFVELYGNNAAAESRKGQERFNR
UniProt Q07820, 172-320 limits assumed, stated change not applied: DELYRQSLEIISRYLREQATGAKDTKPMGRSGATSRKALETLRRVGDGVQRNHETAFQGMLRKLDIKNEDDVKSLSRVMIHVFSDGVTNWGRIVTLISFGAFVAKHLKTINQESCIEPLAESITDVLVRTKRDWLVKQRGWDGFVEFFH

Experiments:
BCL-XLΔC = BCL-XLΔC (Homo sapiens, UniProt Q07817); experiment: High-throughput competitive FP binding screen, FITC-BAD BH3/BCL-XLΔC interaction
MCL-1ΔNΔC = MCL-1ΔNΔC (Homo sapiens, UniProt Q07820); experiment: High-throughput competitive FP binding screen, FITC-MCL-1 SAHB/MCL-1ΔNΔC interaction; set-up: the C-terminal alpha-helix was deleted from each of these constructs; GST (N, cleaved yes); made in house

SMILES	BCL-XL % Bound (BCL-XLΔC) [%]	MCL-1% Bound (MCL-1ΔNΔC) [%]
CC1=C(CC/C(C)=C/CCC2C=CC(C3=CC(=O)OC3O)OC2O)C(C)(C)CCC1 (stereo not shown) [drawing 17]	106.8	35.01
CC1=C(CC/C(C)=C/CCC2C=CC(C3=CC(=O)OC3O)OC2O)C(C)(C)CCC1 (stereo not shown) [drawing 207]	106.8	35.01
